Here are results for five molecules from PMC11181336, “Discovery of ITI-333, a Novel Orally Bioavailable Molecule Targeting Multiple Receptors for the Treatment of Pain and Other Disorders” (Journal of Medicinal Chemistry, 2024).

Chains of the proteins cited; added tags and fusions are not shown.
UniProt P35372, whole entry: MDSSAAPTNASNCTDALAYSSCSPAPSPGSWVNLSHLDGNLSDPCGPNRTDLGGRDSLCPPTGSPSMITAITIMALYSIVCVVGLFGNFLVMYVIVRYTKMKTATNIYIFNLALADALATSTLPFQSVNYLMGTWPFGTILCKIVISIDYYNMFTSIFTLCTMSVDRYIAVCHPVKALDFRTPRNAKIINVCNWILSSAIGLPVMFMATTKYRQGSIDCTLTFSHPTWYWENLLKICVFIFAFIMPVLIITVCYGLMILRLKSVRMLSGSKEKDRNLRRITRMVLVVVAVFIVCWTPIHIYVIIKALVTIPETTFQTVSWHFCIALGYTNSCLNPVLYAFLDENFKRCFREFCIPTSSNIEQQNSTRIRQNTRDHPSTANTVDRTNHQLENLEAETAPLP

This assay has as its target human recombinant MOR (Homo sapiens, UniProt P35372). Description: μ-Opioid receptor binding, [3H]DAMGO displacement. The note with it: for Ki: read-out: Mu Ki; for Mu % inhibition: inhibition at 100 nM, NI = no inhibition.

For orientation: Ki means a dissociation constant, usually derived from enzyme kinetics or from competition with a known ligand. As for `Cn1nc(CCCN2CC[C@H]3[C@@H](C2)c2cccc4c2N3CC(=O)N4)c2ccc(F)cc21`, the inhibition constant (Ki) came out at 7.1 nM. The “fold improvement of binding affinity to MOR” value (compound 25 compared to compound 24) is “approximately 5 fold”.
Take `O=C1CN2c3c(cccc3[C@@H]3CN(CCCOc4ccc(F)c(F)c4)CC[C@@H]32)N1` [compound 39, (6bR,10aS)-8-(3-(3,4-Difluorophenoxy)propyl)-6b,7,8,9,10,10a-hexahydro-1H-pyrido[3′,4′:4,5]pyrrolo-[1,2,3-de]quinoxalin-2(3H)-one]: the Mu % inhibition entry is “(91%)”. Also, the “fold more potent affinity to MOR” value (compound 39 vs unsubstituted parent compound 23) was “about 11 fold”.
As for `O=c1[nH]c2cccc3c2n1[C@H]1CCN(CCCOc2ccc(F)cc2)C[C@@H]31`, the Mu % inhibition result is recorded as “(24%)”.
As for `O=C1CN2c3c(cccc3[C@@H]3CN(CCCOc4ccc(Cl)cc4)CC[C@@H]32)N1`, the inhibition constant Ki stood at 7.3 nM.
For `O=C1CN2c3c(cccc3[C@@H]3CN(CCCCc4ccc(F)cc4)CC[C@@H]32)N1`, the Mu % inhibition was found to be 88% and the inhibition constant Ki turned out to be 4.1 nM.
